# Test results taken from BindingDB's records for doi:10.1046/j.1471-4159.1996.67010058.x (Cns Research, 1996).
# Chains of the proteins cited; added tags and fusions are not shown. Lines headed by an entry give the natural chain unless they say otherwise; changes in a name come on top.
# UniProt Q13255: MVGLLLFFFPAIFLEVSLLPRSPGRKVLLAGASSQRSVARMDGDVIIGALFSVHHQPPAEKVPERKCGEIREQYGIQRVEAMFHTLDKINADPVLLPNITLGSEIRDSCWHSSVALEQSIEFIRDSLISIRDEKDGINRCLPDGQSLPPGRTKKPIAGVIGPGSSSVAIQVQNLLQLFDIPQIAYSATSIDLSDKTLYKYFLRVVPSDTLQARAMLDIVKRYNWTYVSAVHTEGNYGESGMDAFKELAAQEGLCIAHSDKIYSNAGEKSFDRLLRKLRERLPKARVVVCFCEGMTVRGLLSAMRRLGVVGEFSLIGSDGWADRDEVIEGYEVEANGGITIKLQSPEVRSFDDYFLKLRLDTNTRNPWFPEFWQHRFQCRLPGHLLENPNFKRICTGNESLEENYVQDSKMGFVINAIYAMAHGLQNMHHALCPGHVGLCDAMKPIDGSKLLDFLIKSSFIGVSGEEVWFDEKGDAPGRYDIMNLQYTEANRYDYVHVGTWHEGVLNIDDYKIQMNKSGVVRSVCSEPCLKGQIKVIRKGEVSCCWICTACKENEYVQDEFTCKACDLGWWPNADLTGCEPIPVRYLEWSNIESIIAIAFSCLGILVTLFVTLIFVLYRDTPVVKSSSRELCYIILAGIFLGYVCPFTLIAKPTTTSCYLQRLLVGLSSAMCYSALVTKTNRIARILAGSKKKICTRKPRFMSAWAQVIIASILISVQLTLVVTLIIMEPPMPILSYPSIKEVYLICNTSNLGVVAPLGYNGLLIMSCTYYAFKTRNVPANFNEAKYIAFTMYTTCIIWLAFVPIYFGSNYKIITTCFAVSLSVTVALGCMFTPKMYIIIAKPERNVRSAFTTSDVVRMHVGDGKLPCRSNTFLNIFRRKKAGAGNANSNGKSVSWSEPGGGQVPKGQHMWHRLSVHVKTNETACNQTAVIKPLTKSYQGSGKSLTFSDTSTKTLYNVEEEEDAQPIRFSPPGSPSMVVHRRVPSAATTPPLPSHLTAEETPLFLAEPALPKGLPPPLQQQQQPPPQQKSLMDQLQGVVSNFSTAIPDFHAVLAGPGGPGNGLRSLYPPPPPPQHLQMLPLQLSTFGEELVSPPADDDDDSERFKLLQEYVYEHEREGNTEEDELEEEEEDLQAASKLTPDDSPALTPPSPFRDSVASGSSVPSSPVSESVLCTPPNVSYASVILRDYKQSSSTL
# Biological target: Metabotropic glutamate receptor 1 (Homo sapiens, UniProt Q13255)
structure (smiles),measurement,value
"N[C@@H](Cn1oc(=O)[nH]c1=O)C(=O)O [2-amino-3-(3,5-dioxo[1,2,4]oxadiazolidin-2-yl)propionic acid]",Ki,30 nM
